Assay results taken from patent US20110225663A1, “METHOD FOR PRODUCING EUKARYOTIC ORGANISMS WITH ENHANCED PATHOGEN RESISTANCE AND/OR RESISTANCE TO STRESS AND EUKARYOTIC TRANSGENIC ORGANISMS WITH ENHANCED PATHOGEN RESISTANCE AND/OR RESISTANCE TO STRESS” (WESTFAELISCHE WILHELMS-UNIVERSITAET MUENSTER, priority 2008, published 2011).

Test system: NC(=O)c1ccc[n+]([C@@H]2O[C@H](COP(=O)(O)OP(=O)(O)OC[C@H]3O[C@@H](n4cnc5c(N)ncnc54)[C@H](OP(=O)(O)O)[C@@H]3O)[C@@H](O)[C@H]2O)c1
Assay: purified protein, by the assay type
Details: pH 8.0; 37.0 °C

Arabidopsis thaliana glucose-6-phosphate dehydrogenase isoform At1g24280 (P2 class), N-terminally truncated without transit peptide (cP2, 5′ delta 195 bp) (Arabidopsis thaliana)
Km: 2.4 µM
